Values of other authors, collected in PMC9727064, “Performance assessment and economic analysis of a human Liver-Chip for predictive toxicology” (Communications Medicine, 2022).

Columns and labels:
[1] = test system: 3D spheroid cultures of primary human hepatocytes; settings: cited from earlier work
[2] = test system: clinical drug-induced liver injury; settings: clinical DILI severity category 1 to 5; cited from earlier work

O=C(O)Cc1ccccc1Nc1c(Cl)cccc1Cl [Diclofenac]
Spheroid false negative ([1]; Yes/No, also No for drugs not tested in spheroid): No | Garside DILI rank [2]: 2

N[C@@H]1[C@H]2CN(c3nc4c(cc3F)c(=O)c(C(=O)O)cn4-c3ccc(F)cc3F)C[C@@H]12 [Trovafloxacin]
Spheroid MOS ([1]; 3D hepatic spheroids, previously published data): >24.9
